Apparent affinities of Ab-14 variants for a coronavirus HR2 peptide

Binding partner: SARS-CoV-2 spike HR2 peptide, sequence PDVDLGDISGINAS.

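The parent was found by panning a naive human phage display library on the peptide. This is the validation round: designs drawn from the data on random variants, tested in the same kind of assay. Their group label is 14L_En_HC (En: ensemble of fine-tuned language models; HC: hill climbing; a sequence that several methods proposed may carry one label only). In AlphaSeq, yeast of one mating type display the scFv and yeast of the other type display the target. The frequency of each diploid, read from paired DNA barcodes, reflects how well the two displayed proteins bind. Scores were corrected for input abundance and mapped to Kd with protein pairs of known affinity run in the same pool. The assay was run in six technical replicates.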

Parent scFv Ab-14: VH joined to VL by a 15-residue (Gly4Ser)3 linker. Changes lie in the light chain CDRs alone.
VH: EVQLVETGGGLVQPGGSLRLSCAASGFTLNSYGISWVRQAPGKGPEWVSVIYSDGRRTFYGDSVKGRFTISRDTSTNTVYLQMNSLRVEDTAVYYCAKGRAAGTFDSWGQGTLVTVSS
VL: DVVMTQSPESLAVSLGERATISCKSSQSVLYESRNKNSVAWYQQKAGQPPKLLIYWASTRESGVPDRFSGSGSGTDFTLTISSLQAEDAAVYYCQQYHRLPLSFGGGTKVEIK

Variants are written as CDR1, CDR2 and CDR3 of the light chain (limits as in the source). Parent: KSSQSVLYESRNKNSVA, WASTRES, QQYHRLPLS. The read-out is the apparent dissociation constant on a log10 scale (nM): the lower, the stronger. A pair that was not seen in that replicate is written "ND"; this usually means weak binding, but a binder can also be missed. As a blank, each scFv also met three strains without target: over all light chain designs, 4% of these pairings were detected, typically at 2.64 and seldom below 1.59. The control count says in how many pairings with the empty strains this scFv gave a signal, with their mean in brackets. The parent sequence was in this pool as ten entries: three were never detected, three once, and four in most replicates, with averages from 0.34 to 2.37. Values of this round are not directly comparable with the first-round values of the same sequences. The authors averaged sequences with at least three values out of six and counted those with two or fewer as poor binders.

CDR-L1	CDR-L2	CDR-L3	log10 Kd (nM) by replicate	empty controls
KLSQYVGGESRNKSSLA	DNSTREA	QQYHRLPLS	0.98 0.97 0.94 0.76 0.78 1.06	3 of 18 (2.31)
HFSQVTMYGSWVKNSVA	QTSTREE	QQYDRLPLS	0.23 -0.19 -0.13 0.75 0.09 0.73	0 of 18
HISQMVMYGSCNKNNVA	QVSMREE	QQYHRLPLS	0.83 0.96 1.00 0.95 1.09 1.25	1 of 18 (2.40)
KLSQVTHSEHRQKNSIA	EMVTREK	QQYDRLPLS	ND 1.79 1.76 2.25 2.01 1.79	0 of 18
HISYSMQHLSKNKNSVA	NQQTREA	QQYHRLPLS	0.71 0.80 1.05 0.61 1.42 1.16	0 of 18
TLGDVTRQESNKKSSIA	DMSNRAA	QQYHRLPIS	0.64 0.53 0.43 0.54 0.25 0.44	1 of 18 (1.96)
KLYQSMGYLSRNKASIA	DMSRREN	QQYHRLPLS	0.54 0.43 0.31 0.05 0.46 0.38	2 of 18 (2.94)
KLPLATMQESHSKNNVA	ELSTRGS	QQYHRLPLS	0.44 0.29 0.56 0.54 0.71 0.28	1 of 18 (1.94)
MITAGLRGVGRNKNSVA	NAQTRED	QHYHRLPLS	0.94 0.93 1.07 1.07 0.99 1.38	2 of 18 (2.11)
MFSQAVMYGSFYRNSVA	QTSTRES	QQYDRLPLS	1.12 0.50 0.44 0.21 0.56 0.62	0 of 18
MLSDLVWMGVRNTNSVA	DNSTRGS	QQYDRLPLS	ND ND 1.76 ND ND ND	1 of 18 (1.71)
LISGVWDYGSRNYNSVA	QTSTRED	QQYDRLPLE	1.24 1.07 0.91 1.09 1.08 1.35	4 of 18 (3.38)
NVGQMMDGETRNRNSVA	HQSTRED	QHYHRLPLS	0.25 0.13 0.34 0.08 0.20 0.13	1 of 18 (2.43)
KIAATVLYESGTANSVA	QNSTRES	QQYHRLPLS	2.93 3.06 1.90 1.59 1.69 2.85	1 of 18 (2.53)
TIGQSTMVESYNKNSVA	QASTREE	QDYHRLPLS	1.23 1.23 1.53 1.60 1.17 1.61	1 of 18 (2.04)
KLSHYVGGESRNKSSLA	DNSTRES	QQYERLPLS	2.32 2.17 3.11 1.87 2.22 1.91	1 of 18 (3.74)
ALGDVTRMESNKKDSIA	DMSNRED	QQYHRLPLS	-0.01 -0.16 -0.21 -0.34 -0.17 -0.03	0 of 18
KLYQSMNFLGRVMNSIA	DASTIWD	QQYHRLPLS	ND 1.88 2.45 ND 1.60 2.31	1 of 18 (2.08)
TISGMANQESTNKNSVA	ELTTRGS	QQYERLPLS	0.72 0.67 0.75 0.64 0.63 0.51	1 of 18 (2.44)
TISQVHGMLSHNKNSVA	DMNTRGS	QQYDRLPLS	0.59 0.65 0.55 0.56 0.98 1.77	1 of 18 (1.45)
KISSLTSYESVNKNSVA	EMSTRPS	QSYHRLPLS	1.75 0.84 0.93 1.19 1.33 0.88	1 of 18 (3.75)
MSYGGDMLESVTRNSVA	NAETREE	QDYHRLPLS	1.10 1.27 1.04 0.94 1.24 2.39	0 of 18
HISMSVGLTSFNKNSVA	ENSTREN	QQYDRLPLS	2.36 1.78 1.41 1.23 1.82 2.78	2 of 18 (3.37)
IISGVMLMESKHKNSVA	NAETREY	QHYDRLPLS	1.28 2.47 1.80 3.02 3.45 3.15	2 of 18 (2.54)
MFSQLTYTGSRARNAVA	QASTREN	QQYHHLPLA	1.55 0.71 0.81 0.49 1.18 0.41	0 of 18
TISQSTNMTSHGRNSVA	QAEMRES	QQYDRLPLS	1.77 0.77 0.43 1.86 1.82 2.31	1 of 18 (1.99)
TLTQVTMVESYSKNSVA	QASTRLE	QDYHRLPLS	0.70 0.52 0.53 0.53 0.44 0.65	4 of 18 (2.61)
HISMSFMTESVNRNSVA	HQSTREQ	QQYDRLPLS	0.49 0.53 0.33 0.34 -0.18 0.35	0 of 18
KISALYNYESTNKNSIA	EMTTRES	QHYHRLPLS	1.54 1.45 1.51 1.24 1.29 1.81	1 of 18 (3.17)
KIGGVTNGVSFSKNSVA	EQSTRED	QQYDRLPLS	1.22 0.68 0.68 0.78 0.94 0.77	0 of 18
LISSVWDYGSRNYNSVA	QTSTRES	QQYDRLPLD	2.00 2.58 2.24 ND 2.18 2.81	1 of 18 (2.30)
HISQMWMLESRNLNNVA	EESTRED	QSYFRLPLS	0.98 -0.10 0.02 -0.18 0.52 0.32	1 of 18 (1.42)
MFSQGIMVGWLTRNSVA	NSSTRES	QQYHRLPLS	0.72 0.68 0.40 0.36 0.64 0.63	0 of 18
MISQSFLIGSHAKNSVA	QTSTRES	QQYDRLPLS	0.16 0.07 -0.01 0.14 -0.03 0.00	6 of 18 (3.34)
MFSQLFMYGSRNVNSVA	QASTRES	QQYHRLPLI	1.51 0.61 1.42 0.85 0.55 0.82	1 of 18 (1.70)
MFSQLIYTGSRARNAVA	QAETRVN	QQYHHLPLI	1.44 0.85 1.03 1.30 0.90 1.11	0 of 18
HISMSVGLTQFNKNSVA	ENSTREN	QQYDRLPLS	1.53 2.03 2.55 1.36 1.70 1.49	1 of 18 (3.88)
ALSQSMDMTSRNKNSVA	DLTTRMN	QQYHRLPLS	-0.13 -0.20 -0.26 -0.22 -0.45 -0.18	0 of 18

Repeated from above, the 4 best binders with a signal in all replicates:

{"CDR-L1": "ALSQSMDMTSRNKNSVA", "CDR-L2": "DLTTRMN", "CDR-L3": "QQYHRLPLS", "log10 Kd (nM) by replicate": "-0.13 -0.20 -0.26 -0.22 -0.45 -0.18", "empty controls": "0 of 18"}
{"CDR-L1": "ALGDVTRMESNKKDSIA", "CDR-L2": "DMSNRED", "CDR-L3": "QQYHRLPLS", "log10 Kd (nM) by replicate": "-0.01 -0.16 -0.21 -0.34 -0.17 -0.03", "empty controls": "0 of 18"}
{"CDR-L1": "MISQSFLIGSHAKNSVA", "CDR-L2": "QTSTRES", "CDR-L3": "QQYDRLPLS", "log10 Kd (nM) by replicate": "0.16 0.07 -0.01 0.14 -0.03 0.00", "empty controls": "6 of 18 (3.34)"}
{"CDR-L1": "NVGQMMDGETRNRNSVA", "CDR-L2": "HQSTRED", "CDR-L3": "QHYHRLPLS", "log10 Kd (nM) by replicate": "0.25 0.13 0.34 0.08 0.20 0.13", "empty controls": "1 of 18 (2.43)"}

Source: Li et al. 2023 (doi:10.1038/s41467-023-39022-2), MIT Lincoln Laboratory and A-Alpha Bio; data file from the FLAb repository.